# According to patent publication US8680275B2, “Fused heterocyclic compounds as orexin receptor modulators” (Janssen Pharmaceutica NV, priority 2009, dated 2014):
# By UniProt entry, the sequences of proteins in these tests, tags left out.
# UniProt O43613, whole entry: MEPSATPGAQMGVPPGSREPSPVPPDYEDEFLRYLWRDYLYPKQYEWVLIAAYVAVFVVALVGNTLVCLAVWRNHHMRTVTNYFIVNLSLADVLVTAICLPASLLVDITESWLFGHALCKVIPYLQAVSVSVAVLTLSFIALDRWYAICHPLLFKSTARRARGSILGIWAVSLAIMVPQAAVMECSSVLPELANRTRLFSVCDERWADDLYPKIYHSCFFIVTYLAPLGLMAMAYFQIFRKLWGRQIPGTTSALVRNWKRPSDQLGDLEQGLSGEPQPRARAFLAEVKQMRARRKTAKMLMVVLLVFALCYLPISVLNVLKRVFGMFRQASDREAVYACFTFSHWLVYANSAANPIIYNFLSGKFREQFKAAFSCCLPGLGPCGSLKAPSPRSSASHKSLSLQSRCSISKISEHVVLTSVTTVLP
# UniProt O43614, whole entry: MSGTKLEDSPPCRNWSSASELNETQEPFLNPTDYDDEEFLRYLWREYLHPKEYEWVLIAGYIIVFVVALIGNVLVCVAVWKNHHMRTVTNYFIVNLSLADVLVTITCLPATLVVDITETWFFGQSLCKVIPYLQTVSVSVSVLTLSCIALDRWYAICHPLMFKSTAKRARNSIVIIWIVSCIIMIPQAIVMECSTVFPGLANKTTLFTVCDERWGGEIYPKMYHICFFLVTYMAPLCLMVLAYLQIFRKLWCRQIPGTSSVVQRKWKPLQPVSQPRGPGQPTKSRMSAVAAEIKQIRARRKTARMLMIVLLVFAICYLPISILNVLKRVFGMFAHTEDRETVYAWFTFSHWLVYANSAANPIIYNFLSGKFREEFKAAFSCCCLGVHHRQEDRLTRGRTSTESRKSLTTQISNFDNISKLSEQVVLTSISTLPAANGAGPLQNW
# Molecular target: human orexin 1 receptor (Homo sapiens (Human), UniProt O43613)
# Experiment: Human orexin 1 receptor radioligand binding ([3H]-SB674042 competition)
# Conditions: CHO cells stably expressing human orexin 1 receptor; [3H]-SB674042 4 nM final; read-out: OR-1 Ki
# Description: (§1) The in vitro affinity of the compounds for the human orexin-1 and orexin-2 receptors was determined by competitive radioligand binding using [^3H]SB SB674042 (1-(5-(2-fluoro-phenyl)-2-methyl-thiazol-4-yl)-1-((S)-2-(5-phenyl-(1,3,4)oxadiazol-2-ylmethyl)-pyrrolidin-1-yl)methanone) (Langmead et al., British Journal of Pharmacology 2004, 141:340-346.) and [^3H]EMPA (N-ethyl-2[(6-methoxy-pyridin-3-yl)-(toluene-2-sulfonyl)-amino]-N-pyridin-3-ylmethyl acetamide) (Malherbe et al., British Journal of Pharmacology, 2009, 156(8), 1326-1341), respectively.
# Human Orexin 1 Receptor Radioligand Binding Studies
# Chinese ovary cells (CHO) stably expressing human orexin 1 receptor (Genebank accession number NM_001526) were grown to confluency in DMEM/F12 (Gibco, Cat #11039), 10% FBS, 1× Pen/Strep, 600 μg/mL G418 media on 150 cm^2 tissue culture plates, washed with 5 mM EDTA in PBS (HyClone Dulbecco's Phoshpate Buffered Saline 1× with Calcium and Magnesium, Cat #SH30264.01, hereafter referred to simply as PBS) and scraped into 50 ml tubes. After centrifugation (2K xG, 10 min at 4° C.), the supernatant was aspirated and the pellets frozen and stored at −80° C. Cells were resuspended in PBS in the presence of 1 tablet of protease inhibitor cocktail (Roche, Cat. #11836145001) per 50 mL. […] Compounds were solubilized in 100% DMSO (Acros Organics, Cat. #61042-1000) and tested over a range of 7 concentrations (from 0.1 nM to 10 μM). The final concentration of DMSO in the reactions is equal to or less than 0.1%. Total and nonspecific binding was determined in the absence and presence of 10 μM (1-(6,8-difluoro-2-methylquinolin-4-yl)-3-[4-(dimethylamino)phenyl]urea, CAS Registry #288150-92-5). The total volume of each reaction is 200 μL (20 μL of diluted compounds, 80 μL of [^3H]-SB674042 diluted in PBS and 100 μL of the cell suspension). Reactions were run for 60 min at room temperature and terminated by filtration through GF/C filter plates (PerkinElmer, Cat. #6005174) presoaked in 0.3% polyethylenimine using the cell harvester (PerkinElmer Filtermate). The plates were washed 3 times by aspirating 30 ml PBS through the plates. Plates were dried in 55° C. oven for 60 min, scintillation fluid was added, and the radioactivity was counted on a Topcount (Packard).
row,SMILES,Ki
1,"Cc1cc(C)nc(N2C[C@@H]3CCN(C(=O)c4ccccc4-c4ccco4)C[C@@H]32)n1 [Example 2, (1R,6S)[8-(4,6-Dimethyl-pyrimidin-2-yl)-3,8-diaza-bicyclo[4.2.0]oct-3-yl]-(2-furan-2-yl-phenyl)-methanone]",61 nM
2,"O=C(c1ccccc1-c1cccs1)N1CC[C@H]2CN(c3cnc4ccccc4n3)[C@H]2C1 [Example 4, (1R,6S)(8-Quinoxalin-2-yl-3,8-diaza-bicyclo[4.2.0]oct-3-yl)-(2-thiophen-2-yl-phenyl)-methanone]",8 nM
3,"CCOc1ccc2ccccc2c1C(=O)N1CC[C@H]2CN(c3nc(C)cc(C)n3)[C@H]2C1 [Example 24, (1R,6S)[8-(4,6-Dimethyl-pyrimidin-2-yl)-3,8-diaza-bicyclo[4.2.0]oct-3-yl]-(2-ethoxy-naphthalen-1-yl)-methanone]",44 nM
4,"O=C(c1cc(F)ccc1-c1ncccn1)N1CC[C@H]2CN(c3cnc4ccccc4n3)[C@H]2C1 [Example 33, (1R,6S)(5-Fluoro-2-pyrimidin-2-yl-phenyl)-(8-quinoxalin-2-yl-3,8-diaza-bicyclo[4.2.0]oct-3-yl)-methanone]",47 nM
5,"Cc1cc(N2C[C@@H]3CCN(C(=O)c4cc(F)ccc4-n4nccn4)C[C@@H]32)nc(C(F)(F)F)n1 [Example 42, (1R,6S)-(5-Fluoro-2-[1,2,3]triazol-2-yl-phenyl)-[8-(6-methyl-2-trifluoromethyl-pyrimidin-4-yl)-3,8-diaza-bicyclo[4.2.0]oct-3-yl]-methanone]",400 nM
6,"Cc1nccnc1N1C[C@@H]2CCN(C(=O)c3cccc(F)c3-n3nccn3)C[C@@H]21 [Example 109, (1R,6S)-3-{[3-Fluoro-2-(2H-1,2,3-triazol-2-yl)phenyl]carbonyl}-8-(3-methylpyrazin-2-yl)-3,8-diazabicyclo[4.2.0]octane]",10000 nM

# Molecular target: human orexin-2 receptor (Homo sapiens (Human), UniProt O43614)
# Experiment: Human orexin 2 receptor radioligand binding ([3H]-EMPA competition)
# Conditions: HEK293 cells stably expressing human orexin-2 receptor; [3H]-EMPA 5 nM final; read-out: OR-2 Ki
# Description: as §1
# Human Orexin 2 Receptor Radioligand Binding Studies
# HEK293 stably expressing human orexin-2 receptor (Genebank accession number NM_001526) were grown to confluency in DMEM/F12 (Gibco, Cat #11039), in DMEM, 10% FBS, 1× Pen/Strep, 1× NaPyruvate, 1×HEPES, 600 ug/ml G418 media on 150 cm^2 tissue culture plates, washed with 5 mM EDTA in PBS (HyClone Dulbecco's Phosphate Buffered Saline 1× with Calcium and Magnesium, Cat #SH30264.01, hereafter referred to simply as PBS) and scraped into 50 ml tubes. After centrifugation (2K xG, 10 min at 4° C.), the supernatant was aspirated and the pellets frozen and stored at −80° C. Cells were resuspended in PBS in the presence of 1 tablet of protease inhibitor cocktail (Roche, Cat. #11836145001) per 50 mL. […] Competition binding experiments in 96 well polypropylene plates were performed using [^3H]-EMPA (Moravek Corporation, specific activity=27 Ci/mmol), diluted to a […] concentration in PBS (5 nM final concentration). Compounds were solubilized in 100% DMSO (Acros Organics, Cat. #61042-1000) and tested over a range of 7 concentrations (from 0.1 nM to 10 μM). The final concentration of DMSO in the reactions is equal to or less than 0.1%. Total and nonspecific binding was determined in the absence and presence of 10 μM (N-[2-(3,4-dimethoxyphenyl)ethyl]-N-methylnaphthalene-1-carboxamide, CAS Registry #1089563-88-1). The total volume of each reaction is 200 μL (20 μL of diluted compounds, 80 μL of [^3H]-EMPA diluted in PBS and 100 μL of the cell suspension). Reactions were run for 60 min at room temperature and terminated by filtration through GF/C filter plates (PerkinElmer, Cat. #6005174) presoaked in 0.3% polyethylenimine using the cell harvester (Perkin Elmer Filtermate). The plates were washed 3 times by aspirating 30 ml PBS through the plates. Plates were dried in 55° C. oven for 60 min, scintillation fluid was added, and the radioactivity was counted on a Topcount (Packard).
row,SMILES,Ki
1,"Cc1cc(C)nc(N2C[C@@H]3CCN(C(=O)c4ccccc4-n4nccn4)C[C@@H]32)n1 [Example 25, (1R,6S)-[8-(4,6-Dimethyl-pyrimidin-2-yl)-3,8-diaza-bicyclo[4.2.0]oct-3-yl]-(2-[1,2,3]triazol-2-yl-phenyl)-methanone]",15 nM
2,"Cc1cc(C)nc(N2C[C@@H]3CCN(C(=O)c4cc(F)ccc4-n4nccn4)C[C@@H]32)n1 [Example 41, (1R,6S)-[8-(4,6-Dimethyl-pyrimidin-2-yl)-3,8-diaza-bicyclo[4.2.0]oct-3-yl]-(5-fluoro-2-[1,2,3]triazol-2-yl-phenyl)-methanone]",12 nM
3,"Cc1cc(N2C[C@@H]3CCN(C(=O)c4ccc(F)cc4-n4nccn4)C[C@@H]32)nc(N(C)C)n1 [Example 45, (1R,6S)-[8-(2-Dimethylamino-6-methyl-pyrimidin-4-yl)-3,8-diaza-bicyclo[4.2.0]oct-3-yl]-(4-fluoro-2-[1,2,3]triazol-2-yl-phenyl)-methanone]",119 nM
4,"Cc1nccnc1N1C[C@@H]2CCN(C(=O)c3cc(F)ccc3-n3nccn3)C[C@@H]21 [Example 107, (1R,6S)-3-{[5-Fluoro-2-(2H-1,2,3-triazol-2-yl)phenyl]carbonyl}-8-(3-methylpyrazin-2-yl)-3,8-diazabicyclo[4.2.0]octane]",10000 nM
